Test results: PubChem BioAssay AID1920062 (Sanford-Burnham Center for Chemical Genomics, 2024)
Only a part is listed here, and it is no random draw. The source made the active and inactive calls.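 How the source made its calls: active means activation at 10 µM reaching about 35% in either raw or pattern-adjusted values (limit read from the data); inactive means the rest.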

Protein sequences, listed by entry. Tags and fused reporters are not part of them.
UniProt P20594, whole entry: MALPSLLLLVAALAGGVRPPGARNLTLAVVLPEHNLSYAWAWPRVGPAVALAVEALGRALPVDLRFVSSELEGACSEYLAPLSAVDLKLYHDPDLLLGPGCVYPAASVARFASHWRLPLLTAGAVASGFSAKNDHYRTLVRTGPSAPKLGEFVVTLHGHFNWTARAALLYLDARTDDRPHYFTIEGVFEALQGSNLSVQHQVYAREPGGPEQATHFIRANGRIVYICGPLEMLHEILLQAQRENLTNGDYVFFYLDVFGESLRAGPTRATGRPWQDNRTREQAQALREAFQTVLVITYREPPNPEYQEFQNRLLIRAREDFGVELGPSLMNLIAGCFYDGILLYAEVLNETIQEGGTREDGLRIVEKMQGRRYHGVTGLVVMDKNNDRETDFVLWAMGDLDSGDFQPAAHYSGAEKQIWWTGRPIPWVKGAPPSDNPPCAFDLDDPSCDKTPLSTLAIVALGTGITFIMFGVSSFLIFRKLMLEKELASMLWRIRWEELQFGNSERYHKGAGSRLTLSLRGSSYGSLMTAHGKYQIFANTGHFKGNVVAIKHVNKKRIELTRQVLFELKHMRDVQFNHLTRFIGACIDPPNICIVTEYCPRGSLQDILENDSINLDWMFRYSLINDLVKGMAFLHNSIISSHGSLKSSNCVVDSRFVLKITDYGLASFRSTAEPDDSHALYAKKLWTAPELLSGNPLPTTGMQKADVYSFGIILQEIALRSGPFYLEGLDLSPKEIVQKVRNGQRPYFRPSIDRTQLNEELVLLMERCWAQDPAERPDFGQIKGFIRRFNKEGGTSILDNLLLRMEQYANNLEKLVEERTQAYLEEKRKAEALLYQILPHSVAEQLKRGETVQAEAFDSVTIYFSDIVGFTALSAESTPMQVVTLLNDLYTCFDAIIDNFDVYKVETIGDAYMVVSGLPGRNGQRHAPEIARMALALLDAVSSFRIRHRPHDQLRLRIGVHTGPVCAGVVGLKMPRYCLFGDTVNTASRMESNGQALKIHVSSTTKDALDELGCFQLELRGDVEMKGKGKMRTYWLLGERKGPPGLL

Target: Atrial natriuretic peptide receptor 2 (Homo sapiens) (UniProt P20594)
Test: human GC-B receptor activators, primary screen, HEK293 GC-B cells, cGMP TR-FRET, EC30 CNP (AID 1920062)
Conditions: at 10 µM, active compounds read high, 0% at EC30 CNP, 100% saturating CNP

Row | Compound | activation
1 | Cc1cccc(NC2(C#N)CCN(Cc3ccccc3)CC2)c1 | inactive: 0.95%
2 | CSc1ccccc1C(=O)NCC1(N2CCCCC2)CCCCC1 | inactive: 3.94%
3 | CCCCn1nnnc1C(c1cccs1)N1CCC(n2c(=O)[nH]c3ccccc32)CC1 (stereo not given) | inactive: 2.75%
4 | CCCCn1nnnc1C(CC)N1CCC(n2c(=O)[nH]c3ccccc32)CC1 (stereo not given) | inactive: 4.01%
5 | O=C(NCC1(N2CCCCC2)CCCCC1)c1cccs1 | inactive: 0.61%
6 | O=C(NCC1(N2CCCCC2)CCCCC1)c1ccc(=O)[nH]c1 | inactive: 5.8%
7 | CCC(c1nnnn1C1CCCC1)N1CCC(n2c(=O)[nH]c3ccccc32)CC1 (stereo not given) | inactive: -8.72%
8 | COc1ccc(C(=O)NCC2(N3CCCCC3)CCCCC2)c(OC)c1OC | inactive: 3.18%
9 | CC(C)(C)OC(=O)N1CCC(N(C(=O)c2ccccc2)c2ccc(F)cc2)CC1 | inactive: 0.65%
10 | COc1ccc(C(=O)NCC2(N3CCCCC3)CCCCC2)cc1 | inactive: 4.08%
11 | CCCCn1nnnc1C(c1ccc(OC)cc1)N1CCC(n2c(=O)[nH]c3ccccc32)CC1 (stereo not given) | inactive: -11.9%
12 | CCOC(=O)N1CCC(Nc2ccc(OC)cc2)CC1 | inactive: -0.98%
13 | COc1ccc(Cl)cc1C(=O)NCC1(N2CCOCC2)CCCCC1 | inactive: 3.48%
14 | O=C(OC1CN2CCC1CC2)C1c2ccccc2Oc2ccccc21 (stereo not given) | inactive: -10.7%
15 | O=c1[nH]c2ccccc2n1C1CCN(C(c2cc3ccccc3o2)c2nnnn2C2CCCCC2)CC1 (stereo not given) | inactive: 4.45%
16 | O=C(NCC1(N2CCCCC2)CCCCC1)c1ccc(Cl)s1 | inactive: 2.98%
17 | N#CC1(Nc2ccccc2)CCN(Cc2ccccc2)CC1 | inactive: 4.86%
18 | O=C(NCC1(N2CCOCC2)CCCCC1)c1cc2ccccc2o1 | inactive: -1.41%
19 | Cc1cc(C)cc(N(C(=O)c2ccccc2)C2CCN(C(=O)OC(C)(C)C)CC2)c1 | inactive: 1.76%
20 | O=c1[nH]c2ccccc2n1C1CCN(C(c2ccccc2OC(F)(F)F)c2nnnn2C2CCCCC2)CC1 (stereo not given) | inactive: 2.67%
21 | O=C(NCC1(N2CCCCC2)CCCCC1)c1ccc(Cl)nc1 | inactive: 9.66%
22 | COc1ccc(NC2CCN(CCc3ccccc3)CC2)c(OC)c1 | inactive: -1.19%

Row | Compound | activation
23 | CCOC(=O)N1CCC(Nc2ccc(F)cc2)CC1 | inactive: -1.97%
24 | O=C(NCC1(N2CCCCC2)CCCCC1)c1ccc(F)cc1 | inactive: -2.45%
25 | CCCCn1nnnc1C(c1cc2ccccc2o1)N1CCC(n2c(=O)[nH]c3ccccc32)CC1 (stereo not given) | inactive: 4.42%
26 | O=P1(N(CCCl)CCCl)SCCCS1 | inactive: 2.73%
27 | CCCCOc1ccc(C(=O)NCC2(N3CCOCC3)CCCCC2)cc1 | inactive: -5.82%
28 | CCOc1ccc(C)cc1CN(CCCl)CCCl | inactive: -1.72%
29 | O=C1CCN(Cc2ccccc2)CC1 | inactive: 4.8%
30 | CC(C)(C)n1nnnc1C(c1ccccc1)N1CCC(n2c(=O)[nH]c3ccccc32)CC1 (stereo not given) | inactive: -0.37%
31 | O=c1[nH]c2ccccc2n1C1CCN(C(c2cccc3ccccc23)c2nnnn2C2CCCC2)CC1 (stereo not given) | inactive: -2.8%
32 | COc1cc(C(=O)NCC2(N(C)C)CCCCC2)ccc1OC(F)F | inactive: 2.71%
33 | CCOC(=O)N1CCC(Nc2cccc(C)c2)CC1 | inactive: -1.18%
34 | O=c1[nH]c2ccccc2n1C1CCN(C(c2ccccc2)c2nnnn2C2CCCCC2)CC1 (stereo not given) | inactive: 0.83%
35 | O=C(NCC1(N2CCCCC2)CCCCC1)c1cccc([N+](=O)[O-])c1 | inactive: -3.25%
36 | CSc1ccc(C(=O)NCC2(N3CCOCC3)CCCCC2)cc1 | inactive: 2.44%
37 | N#CC1(Nc2ccccc2)CCN(CCc2ccccc2)CC1 | inactive: 2.4%
38 | O=c1[nH]c2ccccc2n1C1CCN(C(c2ccccc2OC(F)(F)F)c2nnnn2C2CCCC2)CC1 (stereo not given) | inactive: -1.13%
39 | CCN1CCC(Nc2ccc(Cl)cc2)CC1 | inactive: -5.76%
40 | O=C(NCC1(N2CCCCC2)CCCCC1)c1ccc(OC(F)F)cc1 | inactive: 4.47%
41 | CC(C)(C)n1nnnc1C(c1ccccc1OC(F)(F)F)N1CCC(n2c(=O)[nH]c3ccccc32)CC1 (stereo not given) | inactive: 2.61%
42 | CCCCn1nnnc1C(c1cccc2ccccc12)N1CCC(n2c(=O)[nH]c3ccccc32)CC1 (stereo not given) | inactive: -10.8%
43 | CN1CCN(CCOC(=O)C(O)(c2ccccc2)c2ccccc2)CC1 | inactive: 2.22%
44 | COc1ccc(NC2CCN(C(=O)OC(C)(C)C)CC2)cc1 | inactive: -7.56%

Row | Compound | activation
45 | CC(C)c1ccc(C(=O)NCC2(N3CCOCC3)CCCCC2)cc1 | inactive: 6.96%
46 | COc1cc(C(=O)NCC2(N3CCCCC3)CCCCC2)ccc1OC(F)F | inactive: 2.42%
47 | O=C(NCC1(N2CCOCC2)CCCCC1)c1cc(=O)[nH]c2ccccc12 | inactive: -0.58%
48 | O=C(NCC1(N2CCCCC2)CCCCC1)c1cccc(C(F)(F)F)c1 | inactive: 3.01%
49 | CCCCn1nnnc1C(c1ccnc2ccccc12)N1CCC(n2c(=O)[nH]c3ccccc32)CC1 (stereo not given) | inactive: 0.25%
50 | CCC(c1nnnn1C(C)(C)C)N1CCC(n2c(=O)[nH]c3ccccc32)CC1 (stereo not given) | inactive: -3.09%
51 | O=C(NCC1(N2CCOCC2)CCCCC1)c1cc(F)c(F)cc1Cl | inactive: -8.94%
52 | COc1cc(OC)c(C(=O)NCC2(N(C)C)CCCCC2)cc1OC | inactive: 9.36%
53 | CN(C)c1cccc(C(=O)NCC2(N3CCCCC3)CCCCC2)c1 | inactive: 2.65%
54 | COC(=O)C1(Nc2ccccc2)CCN(Cc2ccccc2)CC1 | inactive: -4.64%
55 | COc1ccc(CN(CCCl)CCCl)cc1Cl | inactive: 2.78%
56 | CC(C)c1ccc(NC2CCN(C(=O)OC(C)(C)C)CC2)cc1 | inactive: 3.22%
57 | CCCOc1ccc(C(=O)NCC2(N(C)C)CCCCC2)cc1OC | inactive: -0.28%
58 | Cc1ccc(C(=O)NCC2(N(C)C)CCCCC2)o1 | inactive: -1.54%
59 | COc1ccc(C(c2nnnn2C2CCCC2)N2CCC(n3c(=O)[nH]c4ccccc43)CC2)cc1 (stereo not given) | inactive: -6.9%
60 | O=C(NCC1(N2CCCCC2)CCCCC1)c1cncc(Br)c1 | inactive: 1.22%
61 | CN1CCC(Nc2cccc(F)c2)CC1 | inactive: 3.88%
62 | O=c1[nH]c2ccccc2n1C1CCN(C(c2ccnc3ccccc23)c2nnnn2C2CCCC2)CC1 (stereo not given) | inactive: -4.86%
63 | COc1ccc(C(=O)NCC2(N3CCOCC3)CCCCC2)cc1OC | inactive: 4.92%
64 | NC(=O)C1(Nc2ccccc2)CCN(Cc2ccccc2)CC1 | inactive: -4.39%
65 | O=c1[nH]c2ccccc2n1C1CCN(C(c2cccs2)c2nnnn2C2CCCCC2)CC1 (stereo not given) | inactive: 9.72%
66 | O=C(NCC1(N2CCOCC2)CCCCC1)c1cc(Br)ccc1Cl | inactive: -2.94%

Row | Compound | activation
67 | COc1cc(C(=O)NCC2(N3CCOCC3)CCCCC2)cc(OC)c1C | inactive: -2.82%
68 | CCCCn1nnnc1C(c1ccccc1)N1CCC(n2c(=O)[nH]c3ccccc32)CC1 (stereo not given) | inactive: 0.55%
69 | CCCCn1nnnc1C(c1cccc(OC)c1OC)N1CCC(n2c(=O)[nH]c3ccccc32)CC1 (stereo not given) | inactive: -0.04%
70 | O=c1[nH]c2ccccc2n1C1CCN(C(c2cccs2)c2nnnn2C2CCCC2)CC1 (stereo not given) | inactive: 4.55%
71 | O=C(OC1CN2CCC1CC2)C1c2ccccc2C=Cc2ccccc21 (stereo not given) | inactive: -23.1%
72 | N/C(=N\O)c1c(N)no[n+]1[O-] | inactive: 1.84%
73 | COc1cccc(C(c2nnnn2C(C)(C)C)N2CCC(n3c(=O)[nH]c4ccccc43)CC2)c1OC (stereo not given) | inactive: 1.68%
74 | CCOC(=O)N1CCC(Nc2ccc(C)cc2)CC1 | inactive: 1.42%
75 | CC(C)(C)OC(=O)N1CCC(N(C(=O)c2ccccc2)c2ccc(Cl)cc2)CC1 | inactive: 2.21%
76 | N#Cc1ccc(C(=O)NCC2(N3CCCCC3)CCCCC2)cc1 | inactive: 5.43%
77 | CC(C)(C)n1nnnc1C(c1cccc2ccccc12)N1CCC(n2c(=O)[nH]c3ccccc32)CC1 (stereo not given) | inactive: -3.82%
78 | O=c1[nH]c2ccccc2n1C1CCN(C(c2ccccc2)c2nnnn2C2CCCC2)CC1 (stereo not given) | inactive: 1.2%
79 | CCCN1CCC(Nc2cc(OC)cc(OC)c2)CC1 | inactive: 4.54%
80 | Cc1cc(N(CCCl)CCCl)ccc1C=O | inactive: 2.6%
81 | c1ccc(CN2CCC(Nc3ccccc3)CC2)cc1 | inactive: 0.41%
82 | C/C(N)=N\P(=O)(Oc1ccccc1)Oc1ccccc1 | inactive: -3.83%
83 | CN(C)C1(CNC(=O)c2cccc(C#N)c2)CCCCC1 | inactive: 2.7%
84 | Cc1ccc(NC2(C#N)CCN(Cc3ccccc3)CC2)cc1 | inactive: 1.43%
85 | Fc1ccccc1NC1CCN(Cc2ccccc2)CC1 | inactive: 3.62%
86 | Cc1ccc(C(=O)NCC2(N3CCCCC3)CCCCC2)o1 | inactive: -4.92%
87 | O=c1[nH]c2ccccc2n1C1CCN(C(c2ccnc3ccccc23)c2nnnn2C2CCCCC2)CC1 (stereo not given) | inactive: -2.42%
88 | COc1cc(OC)cc(C(=O)NCC2(N3CCCCC3)CCCCC2)c1 | inactive: -6.17%

Row | Compound | activation
89 | CCC(c1nnnn1C1CCCCC1)N1CCC(n2c(=O)[nH]c3ccccc32)CC1 (stereo not given) | inactive: -9.93%
90 | CC(=O)N(c1ccccc1)C1CCNCC1 | inactive: 2.48%
91 | COc1cccc(C(c2nnnn2C2CCCCC2)N2CCC(n3c(=O)[nH]c4ccccc43)CC2)c1OC (stereo not given) | inactive: -5.34%
92 | Cn1c(=O)[nH]cc(N(CCCl)CCCl)c1=O | inactive: -3.77%
93 | CN(C)c1ccc(C(=O)NCC2(N3CCCCC3)CCCCC2)cc1 | inactive: 2.02%
94 | O=C(NCC1(N2CCCCC2)CCCCC1)c1ccco1 | inactive: 3.74%
95 | CC(C)(C)n1nnnc1C(c1ccnc2ccccc12)N1CCC(n2c(=O)[nH]c3ccccc32)CC1 (stereo not given) | inactive: -4.07%
96 | COc1ccc(C(c2nnnn2C2CCCCC2)N2CCC(n3c(=O)[nH]c4ccccc43)CC2)cc1 (stereo not given) | inactive: -0.74%
97 | CCN1CCC(Nc2cccc(F)c2)CC1 | inactive: 2.01%
98 | Cc1ccccc1NC1(C#N)CCN(Cc2ccccc2)CC1 | inactive: -2.4%
99 | CCCOc1ccc(C(=O)NCC2(N(C)C)CCCCC2)cc1 | inactive: 5.59%
100 | O=c1[nH]c2ccccc2n1C1CCN(C(c2cc3ccccc3o2)c2nnnn2C2CCCC2)CC1 (stereo not given) | inactive: 10.7%
101 | O=C(O)C1(Nc2ccccc2)CCN(Cc2ccccc2)CC1 | inactive: 2.38%
102 | NN(c1ccccc1)C1CCN(CCc2ccccc2)CC1 | inactive: -1.47%
103 | CC(C)(C)OC(=O)N1CCC(Nc2ccccc2)CC1 | inactive: -0.64%
104 | CN1CCC(Nc2ccc(F)c(Cl)c2)CC1 | inactive: -6.41%
105 | CCOc1ncccc1C(=O)NCC1(N2CCOCC2)CCCCC1 | inactive: -8.18%
106 | CN1CCC(Nc2ccc(Cl)cc2)CC1 | inactive: 0.88%
107 | CCC(CO)(C(=O)OC1CN2CCC1CC2)c1ccccc1 (stereo not given) | inactive: -5.11%
108 | COc1cc(OC)cc(C(=O)NCC2(N3CCOCC3)CCCCC2)c1 | inactive: 3.44%
109 | COc1cccc(C(c2nnnn2C2CCCC2)N2CCC(n3c(=O)[nH]c4ccccc43)CC2)c1OC (stereo not given) | inactive: 1.97%
110 | COc1cccc(C(=O)N(c2cc(C)cc(C)c2)C2CCN(C(=O)OC(C)(C)C)CC2)c1 | inactive: 2.23%
